Sampled rows, rich in hits. Any-hit rate of the full collection: about 1.2%.
C2C12 statin – protects C2C12 myotubes from simvastatin toxicity | ATP luminescence, 48 h; scaled: DMSO 0, geranylgeraniol control 100 | rescue of ATP level, % at 7.49 µM | 0.78% of 330,000 active | AID 602340;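 active means mean ATP rescue above about 67%, or every replicate alone reaching that limit, limit read from the data, passing the limit was not always enough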;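 further: myotubes were challenged with 10 µM simvastatin during compound exposure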
Cneo AK release – Cryptococcus neoformans lysis via adenylate kinase release; 0.2% of 360,000 active; lysis activity, % at 15 µM; AID 651654; C. neoformans lysis, adenylate kinase release luminescence, 4 h; normalised: neutral wells 0, clomiphene wells 100;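 active means mean lysis activity across replicates of at least 80%, whatever share of replicates individually reach that level; inactive means mean lysis activity below 80%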
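Test system: log-phase Cryptococcus neoformans yeast cells; Quantity: yeast cell density of 5 × 10^6 cells/mL; Buffer or medium: YPD; Doses: single compound concentration per well; Timing: 4 h at 37 °C static, read 1 h later; Measured by: AK luminescence; Read-out basis: lysis from increased AK signal; Control set: Clomiphene as positive control.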
miR122 inh – blocks miR-122 activity in Huh7 sensor cells; Huh7 miR-122 Renilla luciferase sensor, 48 h; neutral wells = 0, positive control = 100; 0.3% of 340,000 active; AID 602342; activation (reporter increase), % at 12.5 µM;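 active means mean replicate activation score at least 90 and every replicate individually at or above 90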;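 further: higher luciferase means less miR-122 activity so hits act as miR-122 inhibitors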
UUG fidelity – yeast start codon fidelity modulation; AID 602363; activity score, % at 18.7 µM; S. cerevisiae UUG-firefly luciferase reporter, luminescence/redox ratio; 0.13% of 350,000 active;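 active means replicate mean at a twofold rise or more, about +100% in these data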;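 further: firefly luciferase made from a UUG start codon reports start codon fidelity; reporter light over untreated wells divided by growth signal over untreated wells; some hits fall short of that in this replicate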
An asterisk follows results filed as active; · = no result; [ ] = remark or other dose.

Key to letters: A = C2C12 statin; B = Cneo AK release; C = miR122 inh; D = UUG fidelity
COc1ccc(CNC(=O)C[C@@H]2C[C@H]3c4cc(NS(C)(=O)=O)ccc4O[C@H]3[C@@H](CO)O2)cc1
  A: -0.2	B: 8.1	C: 4.9[16.7 µM]	D: -11.0
COc1ccc(N(C(=O)c2ccco2)S(=O)(=O)c2ccc(F)cc2)cc1
  A: 15.7	B: -0.8	C: 4.6	D: -6.3
COc1ccc(N(C(=O)c2ccco2)S(=O)(=O)c2cc(OC)ccc2OC)cc1
  A: 103.8*	B: -1.0	C: 24.9	D: -5.1
CC(C)C#Cc1ccc2c(c1)O[C@@H](CN(C)C(=O)c1ccncc1)[C@H](C)CN([C@H](C)CO)S2(=O)=O
  A: -4.6	B: -3.6	C: -9.6[16.7 µM]	D: ·
COc1ccc(C#Cc2cnc3c(c2)C(=O)N([C@H](C)CO)C[C@H](C)[C@H](CN(C)S(=O)(=O)c2cccs2)O3)cc1OC
  A: -60.5	B: -4.0	C: -10.4[16.7 µM]	D: 14.1
CN1[C@@H]2c3ccc(-c4ccccc4F)c(=O)n3C[C@H]1[C@H](CO)[C@H]2C(=O)NCc1ccccn1
  A: 4.5	B: 0.2	C: ·	D: ·
CCN1C(=NCc2ccco2)N[C@@H](c2cccc(C(F)(F)F)c2)C(C(=O)OC)=C1C
  A: 88.0*	B: 0.0	C: -6.8	D: -6.4
CCN1C(=NCC2CC2)N[C@@H](c2cccc(C(F)(F)F)c2)C(C(=O)OC)=C1C
  A: -56.2	B: 1.8	C: 0.9	D: -13.8
COC(=O)c1[nH]c2ccc(C)cc2c1NC(=O)CN1CCN(Cc2ccccc2)CC1
  A: 13.7	B: 0.6	C: 26.0	D: -6.3
COC(=O)c1[nH]c2ccc(C)cc2c1NC(=O)CN1CCN(C(=O)c2ccccc2)CC1
  A: 96.3*	B: 0.7	C: -6.5	D: 0.3
C[C@@H]1CN([C@@H](C)CO)C(=O)c2cccc(NC(=O)c3ccc(-c4nccs4)cc3)c2O[C@H]1CN(C)CC1CCCCC1
  A: 30.6	B: 1.9	C: 11.8[16.7 µM]	D: 61.3
COc1ccc(C(=O)c2nc3c(n2O)CCCC3)cc1OC
  A: 122.5*	B: -1.8	C: -2.0	D: -9.6
COc1ccc(C(=O)c2nc3c(n2O)CCCCC3)cc1
  A: -0.5	B: 1.1	C: 3.0	D: -11.4
COc1ccc(C(C[N+](=O)[O-])c2c(C)[nH]n(-c3ccccc3)c2=O)cc1 (centres undefined)
  A: 1.7	B: -4.0	C: ·	D: -8.0
Cc1[nH]n(-c2ccccc2)c(=O)c1C(C[N+](=O)[O-])c1ccccc1Cl (centres undefined)
  A: 117.9*	B: 7.9	C: 0.2	D: -2.0

Continued.
Key to letters: A = C2C12 statin; B = Cneo AK release; C = miR122 inh; D = UUG fidelity
Fc1ccccc1NC(=S)NCCc1ccc(Cl)cc1
  A: 15.7	B: 14.8	C: 7.5	D: -16.4
O=C(NCCCc1ccccc1)Nc1ccccc1
  A: ·	B: 0.3	C: 26.1	D: -9.6
Fc1ccccc1NC(=S)NCCc1ccccc1
  A: 156.0*	B: 12.3	C: 24.6	D: -19.4
S=C(NCCCc1ccccc1)Nc1ccccc1
  A: -32.7	B: 104.2*	C: 8.2	D: -22.8
CC(C)(CNC(=S)NCCc1ccccc1)CNC(=S)NCCc1ccccc1
  A: ·	B: 1.0	C: 279.8*	D: -30.8
S=C(NCCc1ccc(Cl)cc1)NCc1ccccc1
  A: -9.7	B: 114.5*	C: 1.1	D: -37.8
Cc1ccc(S(=O)(=O)Nc2ccc3c(c2)CC(=O)N([C@H](C)CO)C[C@@H](C)[C@H](CN(C)S(=O)(=O)c2cccs2)O3)cc1
  A: 3.4	B: 16.7	C: 6.1[16.7 µM]	D: -2.5
CN1[C@@H]2c3ccc(-c4cncnc4)c(=O)n3C[C@@H]2[C@@H](CO)[C@@H]1C(=O)N1CCc2ccccc2C1
  A: -29.5	B: ·	C: 1.0[16.7 µM]	D: ·
Cc1ccc(C)c(/C=N/NC(=S)NCCc2ccccc2)c1
  A: 132.5*	B: 1.3	C: -3.3	D: -16.1
Cc1c(Cl)cccc1NC(=S)NCCc1ccc(Cl)cc1
  A: -6.2	B: 113.1*	C: 6.9	D: -15.5
Cc1c(Cl)cccc1NC(=S)NCCc1ccc(F)cc1
  A: 32.8	B: 7.2	C: 12.8	D: -30.7
C[C@@H]1CCCCO[C@@H](CN(C)C)[C@H](C)CN([C@@H](C)CO)C(=O)c2cc(NC(=O)Cc3ccccc3)ccc2O1
  A: 19.3	B: ·	C: 5.2[16.7 µM]	D: ·
CCOc1cc(CNCc2ccncc2)cc(Br)c1OCc1ccccc1F
  A: 112.5*	B: 2.2	C: -13.3	D: -3.8
C[C@H](CO)N1C[C@H](C)[C@H](CN(C)S(C)(=O)=O)Oc2ccc(NC(=O)Nc3cccc4ccccc34)cc2CC1=O
  A: -20.0	B: 0.1	C: -1.1[16.7 µM]	D: ·
Cc1cccc(Nc2nc(CC(=O)O)cs2)c1
  A: 128.2*	B: 2.5	C: 1.0	D: -17.3

5 compounds out of the list above, ordered by the value under miR122 inh, ascending.
canonical_smiles,miR122 inh,UUG fidelity
CCOc1cc(CNCc2ccncc2)cc(Br)c1OCc1ccccc1F,-13.3,-3.8
COC(=O)c1[nH]c2ccc(C)cc2c1NC(=O)CN1CCN(C(=O)c2ccccc2)CC1,-6.5,0.3
Cc1ccc(C)c(/C=N/NC(=S)NCCc2ccccc2)c1,-3.3,-16.1
S=C(NCCc1ccc(Cl)cc1)NCc1ccccc1,1.1,-37.8
Fc1ccccc1NC(=S)NCCc1ccc(Cl)cc1,7.5,-16.4

The results go on.
Values run as follows: C2C12 statin, Cneo AK release, miR122 inh, UUG fidelity
CCOc1ccc(-n2c(SCC(=O)Nc3ccc4c(c3)OCO4)nc3ccccc3c2=O)cc1
  ·, 2.2, -2.0, -8.5
COc1ccc(-n2c(SCC(=O)Nc3ccc4c(c3)OCO4)nc3ccccc3c2=O)cc1
  118.4*, ·, -5.5, ·
N#Cc1ccccc1CSc1nc(N2CCCCC2)nc(N2CCCCC2)n1
  117.4*, 1.4, 5.7, 5.2
CCC(=O)N1[C@H](C(=O)NC2CCC2)[C@@H](CO)[C@@H]2Cn3c(ccc(-c4ccc(F)cc4)c3=O)[C@@H]21
  3.8, -0.3, -1.1[16.7 µM], ·
O=C(COc1ccccc1)Nc1nnc(S(=O)(=O)N2CCCC2)s1
  0.9, 4.1, 3.1, -12.0
COc1ccc(OCC(=O)Nc2nnc(S(=O)(=O)N3CCCCCC3)s2)cc1
  112.6*, -0.8, -3.7, -16.2
O=C(Cc1cccs1)Nc1ccc(S(=O)(=O)N2CCCCC2)cc1
  -4.7, 0.3, 131.7*, -9.2
O=C(COc1ccccc1)Nc1ccc(S(=O)(=O)N2CCCC2)cc1
  115.9*, -1.0, 0.8, -6.2
CN1CCN(S(=O)(=O)c2ccc(NC(=O)Cc3cccs3)cc2)CC1
  -13.9, ·, 8.1, ·
C[C@H](CO)N1C[C@H](C)[C@H](CN(C)C(=O)CCCN(C)C)OCCCC[C@H](C)Oc2ccc(NC(=O)NC3CCCCC3)cc2C1=O
  ·, -1.8, 8.4[16.7 µM], 21.3
Cc1ccc(Cl)cc1NC(=O)Cn1cccc1
  80.5*, 2.7, -0.5, -9.0
COC(=O)c1c(C(=O)OC)c2cc(C)ccn2c1Cl
  100.7*, -1.9, -0.6, -23.0
CC(C)NC(=O)Nc1ccc2c(c1)C(=O)N([C@H](C)CO)C[C@@H](C)[C@@H](CN(C)Cc1ccncc1)OCCCC[C@H](C)O2
  ·, 1.8, 4.0[16.7 µM], ·
CC(C)NC(=O)Nc1ccc2c(c1)C(=O)N([C@H](C)CO)C[C@H](C)[C@H](CN(C)Cc1ccncc1)OCCCC[C@H](C)O2
  ·, 114.2*, 1.0[16.7 µM], ·
C[C@@H]1CCCCO[C@@H](CN(C)Cc2ccncc2)[C@@H](C)CN([C@@H](C)CO)C(=O)c2cc(NC(=O)NC3CCCCC3)ccc2O1
  -11.0, -2.5, 5.0[16.7 µM], 19.1
C[C@H](CO)N1C[C@H](C)[C@@H](CN(C)Cc2ccncc2)OCCCC[C@H](C)Oc2ccc(NC(=O)NC3CCCCC3)cc2C1=O
  13.1, 110.5*, -3.8[16.7 µM], 15.6
O=C(C[C@@H]1CC[C@H](NC(=O)C2CCOCC2)[C@H](CO)O1)Nc1ccc(-c2ccccc2)cc1
  0.5, 57.5, ·, 11.5
O=C(C[C@@H]1C[C@@H]2c3cc(NC(=O)C4CCOCC4)ccc3O[C@@H]2[C@H](CO)O1)NC1CCCC1
  5.8, -1.4, 3.4[16.7 µM], -2.0
Cc1ccc(C)c(NC(=O)C2CC3c4ccccc4C2c2ccccc23)c1 (centres undefined)
  129.7*, -2.0, -3.4, -5.3
N=c1n(-c2ccccc2)c(O)cc(=O)n1-c1ccccc1
  122.8*, 3.3, -5.0, -15.6
Cc1nnc(SCC(=O)NCc2ccco2)n1-c1ccccc1
  1.0, 2.5, 1.8, -16.3
Cc1nnc(SCC(=O)NCc2ccccc2)n1-c1ccccc1
  103.4*, 3.9, -1.7, -10.1
CCOC(=O)c1[nH]c2ccccc2c1NC(=O)Nc1ccc(OC)cc1
  119.3*, -0.2, 3.5, -10.7

Some of the entries above in a different format:
CCC(=O)N1[C@H](C(=O)NC2CCC2)[C@@H](CO)[C@@H]2Cn3c(ccc(-c4ccc(F)cc4)c3=O)[C@@H]21
  C2C12 statin: 3.8; Cneo AK release: -0.3; miR122 inh: -1.1[16.7 µM]; UUG fidelity: ·
COC(=O)c1c(C(=O)OC)c2cc(C)ccn2c1Cl
  C2C12 statin: 100.7*; Cneo AK release: -1.9; miR122 inh: -0.6; UUG fidelity: -23.0
